The record followed here is ChEMBL document CHEMBL5725801, “Fused heterocyclic compounds as CaM kinase inhibitors” (2018).

A short description of this test: CaMKII Cell-Based Activity: CaMKII activity in neonatal rat ventricular myocytes (NRVM) was measured by monitoring the phosphorylation level of phospholamban using high-content imaging. NRVMs were plated in a clear bottom 384-well plate in medium supplemented with 10% fetal bovine serum (FBS) and incubated at 37° C., 5% CO2 overnight. The medium was changed to a serum-free medium and compounds were dosed to the cells. The cells were incubated at 37° C., 5% CO2 for 4 hours and were then treated with 100 nM ATX-II (Alomone Labs) to activate CaMKII. 10 minutes after the addition of ATX-II, the cells were fixed with 4% formaldehyde followed by permeabilization with 0.1% triton X100. The fixed cells were stained with an anti-phospho-phospholamban primary antibody (Santa Cruz Biotechnology) and an Alexa488-labeled anti-rabbit IgG secondary antibody (Life Technologies Corporation) as well as Hoechst 33342 (Life Technologies Corporation). The cells were imaged using an ArrayScan VTI (Cellomics) and analyzed for cells containing a positive fluorescent signal at 485 nm, reported as % responder. The % responders were plotted against the compound concentration to determine the compounds EC50.

As usually defined, the EC50 is the concentration that produces a half-maximal response. Low values mean greater potency, high ones weaker potency. For the compound `N[C@H]1CCC[C@H]1NC(=O)c1ccnc(-c2cnn3ccc(-c4ccccc4)nc23)c1`, the 50% effective concentration (EC50) came to 226 nM.
